Structures are written as SMILES.

Chains of the proteins cited; added tags and fusions are not shown. Lines headed by an entry give the natural chain unless they say otherwise; changes in a name come on top.
UniProt Q13255: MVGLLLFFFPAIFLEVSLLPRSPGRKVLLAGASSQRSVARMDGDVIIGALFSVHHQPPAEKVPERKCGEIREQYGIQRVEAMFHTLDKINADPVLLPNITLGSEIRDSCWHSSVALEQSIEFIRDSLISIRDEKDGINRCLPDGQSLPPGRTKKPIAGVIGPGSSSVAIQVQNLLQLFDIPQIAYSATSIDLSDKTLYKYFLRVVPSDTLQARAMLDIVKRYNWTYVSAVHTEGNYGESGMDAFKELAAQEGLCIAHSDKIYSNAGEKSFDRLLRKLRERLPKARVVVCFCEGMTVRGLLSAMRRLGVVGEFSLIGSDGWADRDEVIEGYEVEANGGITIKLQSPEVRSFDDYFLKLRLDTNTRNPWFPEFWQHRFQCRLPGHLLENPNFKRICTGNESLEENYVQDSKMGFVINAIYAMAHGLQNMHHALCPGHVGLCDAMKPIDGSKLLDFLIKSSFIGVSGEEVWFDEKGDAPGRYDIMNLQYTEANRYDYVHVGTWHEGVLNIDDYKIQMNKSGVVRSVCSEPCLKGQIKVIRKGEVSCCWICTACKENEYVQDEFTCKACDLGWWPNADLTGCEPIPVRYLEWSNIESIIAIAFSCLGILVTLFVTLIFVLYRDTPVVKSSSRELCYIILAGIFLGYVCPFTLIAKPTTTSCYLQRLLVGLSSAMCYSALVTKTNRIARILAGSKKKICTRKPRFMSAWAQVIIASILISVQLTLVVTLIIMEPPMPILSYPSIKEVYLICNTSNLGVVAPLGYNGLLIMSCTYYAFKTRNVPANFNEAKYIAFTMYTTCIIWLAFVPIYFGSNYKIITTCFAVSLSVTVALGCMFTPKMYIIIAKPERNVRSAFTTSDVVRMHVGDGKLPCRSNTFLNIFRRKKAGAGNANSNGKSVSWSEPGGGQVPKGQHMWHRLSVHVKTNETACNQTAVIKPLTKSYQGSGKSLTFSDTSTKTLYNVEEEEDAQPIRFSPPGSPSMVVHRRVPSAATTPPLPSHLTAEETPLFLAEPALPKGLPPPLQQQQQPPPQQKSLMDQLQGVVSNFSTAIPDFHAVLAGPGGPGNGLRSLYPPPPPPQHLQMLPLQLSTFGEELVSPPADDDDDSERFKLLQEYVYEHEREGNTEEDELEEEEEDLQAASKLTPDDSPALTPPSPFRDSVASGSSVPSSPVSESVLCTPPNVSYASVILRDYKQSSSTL

This assay addresses Metabotropic glutamate receptor 1 (Homo sapiens, UniProt Q13255).

By Ki is commonly meant the dissociation constant of the complex between target and ligand, obtained from inhibition or displacement. For the compound `N[C@@H](Cn1oc(=O)[nH]c1=O)C(=O)O` [2-amino-3-(3,5-dioxo[1,2,4]oxadiazolidin-2-yl)propionic acid], the Ki stood at 0.2 µM.

(Values after BindingDB's records for doi:10.1146/annurev.pharmtox.37.1.205 (Emory University, 1997).)
